Legend:
[1] = test system: human umbilical vein endothelial cells (Huvec cells); experiment: SA-β-Gal staining, D-galactose-induced senescence, pre-administration (Example 4); details: 30 µM, pre-administration 24 hours, then 40 g/L D-gal 24 hours; FIG. 12
Experimental: Culture conditions for human umbilical vein endothelial cells (Huvec cells) are as follows: The Huvec cells were cultured in an ECM culture medium (SclenCell) and passaged and seeded when cultured to a density of 70% to 80% in a culture dish. The cells were washed 1 time with PBS, 0.25% trypsin (Gibco) was added for digestion for 2-3 minutes, and then an ECM culture medium was added to terminate the digestion. The cells were pipetted to be detached, collected into a 15 mL centrifuge tube, and centrifuged at 1,000 rpm for 5 minutes. The supernatant was discarded, a new ECM culture medium was added, and the cells were pipetted uniformly, seeded into a 12-well or 24-well plate (at a density of 70% to 80%), and cultured in a 5% CO2 incubator at 37°C. After cell adherence, the next operation was performed.
Working concentrations of each drug and modeling agent: The concentrations of DNJ, DNJ-1, DNJ-3a, DNJ-3b, DNJ-5a, and NMN were all 30 µM; and the concentration of the modeling agent, H2O2, was 200 µM.
The workflow for SA-β-Gal staining of the cells is as follows: For the cells cultured in a 6-well plate, a cell culture solution was sucked away, the cells were washed 1 time with PBS, and 1 mL of an SA-β-Gal staining fixative was added for fixation at room temperature for 15 minutes. For other types of culture plates, the dosages of the fixative and subsequent solutions were used in operation with reference to this ratio. The cell fixative was sucked away, and the cells were washed 3 times with PBS, for 3 minutes each time. PBS was sucked away, and 1 mL of a staining working solution was added to each well. A method for formulating the staining working solution is as follows: A β-galactosidase staining solution A (10 µL), a β-galactosidase staining solution B (10 µL), a β-galactosidase staining solution C (930 µL), and an X-Gal solution (50 µL) were used. The cells were incubated overnight at 37°C, and the 6-well plate was sealed with a parafilm or a plastic wrap to prevent evaporation. Photographing was performed for record using a 20× objective under a microfluidic live cell real-time analysis system (Thermo), cell counting was performed using ImageJ software (National Institutes of Health, v 1.8.0), and ANOVA data analysis of multiple groups (mean ± SD) was performed using Graphpad Prism software (GraphPad Software, v 9.0.0).
The anti-aging activity of drugs was detected in a stress-induced senescence model of human umbilical vein endothelial cells induced by D-galactose. A basic method refers to Example 1, with differences in the modeling method as follows: a cell senescence model was constructed by stimulation with 40 g/L D-gal for 24 hours.

SASP factors = experiment: qRT-PCR of SASP factor mRNA, H2O2-induced senescence of Huvec cells, pre-administration (Example 8); details: 30 µM DNJ pre-administration 24 hours, then 200 µM H2O2 24 hours; compared with H2O2 group; FIG. 16
Text: The activity of drugs to inhibit a senescence-associated inflammatory phenotype was detected in a stress-induced senescence model of human umbilical vein endothelial cells induced by H2O2. […]
The operation procedure for cell RNA extraction is as follows: A culture solution was sucked out from a culture dish, and the cells were washed once with a 1× PBS buffer solution. […] RNA concentrations of samples were detected using a Nano-100 micro-spectrophotometer, RNA purities were detected based on absorbance at 260/280 nm, and the samples were finally stored at -80°C.
The operation procedure for reverse transcription and qRT-PCR reactions of cell RNA samples is as follows: • (1) Removal of genomic DNA. According to the corresponding RNA concentrations, the required volumes of RNase free water and RNA were calculated. […]

## OC[C@H]1NC[C@H](O)[C@@H](O)[C@@H]1O
[1]
  number of SA-β-Gal staining-positive cells: significantly reduced
SASP factors
  increase in the mRNA expression of SASP factors: significantly inhibited
